Reference: PMC11472320, “Computationally Driven Discovery of a BCR-ABL1 Kinase Inhibitor with Activity in Multidrug-Resistant Chronic Myeloid Leukemia” (Journal of Medicinal Chemistry, 2024)

By UniProt entry, the sequences of proteins in these tests, tags left out. Where a name states a change or a piece, a line headed by the entry shows the natural chain unless it says otherwise. Residues count along the entry.
UniProt P16591: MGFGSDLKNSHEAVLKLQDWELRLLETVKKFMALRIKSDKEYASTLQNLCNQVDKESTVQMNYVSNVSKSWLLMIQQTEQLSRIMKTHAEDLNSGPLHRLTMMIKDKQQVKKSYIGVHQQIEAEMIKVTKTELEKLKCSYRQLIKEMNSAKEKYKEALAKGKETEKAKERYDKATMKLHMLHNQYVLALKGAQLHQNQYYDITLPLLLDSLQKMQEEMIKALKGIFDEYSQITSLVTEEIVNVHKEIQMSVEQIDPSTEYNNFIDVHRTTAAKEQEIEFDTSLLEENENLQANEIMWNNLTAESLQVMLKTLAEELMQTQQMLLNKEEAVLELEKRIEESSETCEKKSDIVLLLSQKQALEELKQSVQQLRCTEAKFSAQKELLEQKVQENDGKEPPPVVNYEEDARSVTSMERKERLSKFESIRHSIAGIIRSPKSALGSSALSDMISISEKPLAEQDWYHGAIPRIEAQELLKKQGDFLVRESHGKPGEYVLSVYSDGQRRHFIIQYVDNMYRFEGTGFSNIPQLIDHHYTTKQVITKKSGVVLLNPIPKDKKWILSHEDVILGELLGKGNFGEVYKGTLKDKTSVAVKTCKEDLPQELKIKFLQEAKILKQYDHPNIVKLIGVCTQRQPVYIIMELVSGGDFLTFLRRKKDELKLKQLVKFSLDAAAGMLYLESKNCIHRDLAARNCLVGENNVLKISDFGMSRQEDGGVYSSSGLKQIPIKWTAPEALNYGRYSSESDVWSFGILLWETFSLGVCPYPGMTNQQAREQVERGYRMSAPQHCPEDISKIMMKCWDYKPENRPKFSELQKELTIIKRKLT
UniProt O96013: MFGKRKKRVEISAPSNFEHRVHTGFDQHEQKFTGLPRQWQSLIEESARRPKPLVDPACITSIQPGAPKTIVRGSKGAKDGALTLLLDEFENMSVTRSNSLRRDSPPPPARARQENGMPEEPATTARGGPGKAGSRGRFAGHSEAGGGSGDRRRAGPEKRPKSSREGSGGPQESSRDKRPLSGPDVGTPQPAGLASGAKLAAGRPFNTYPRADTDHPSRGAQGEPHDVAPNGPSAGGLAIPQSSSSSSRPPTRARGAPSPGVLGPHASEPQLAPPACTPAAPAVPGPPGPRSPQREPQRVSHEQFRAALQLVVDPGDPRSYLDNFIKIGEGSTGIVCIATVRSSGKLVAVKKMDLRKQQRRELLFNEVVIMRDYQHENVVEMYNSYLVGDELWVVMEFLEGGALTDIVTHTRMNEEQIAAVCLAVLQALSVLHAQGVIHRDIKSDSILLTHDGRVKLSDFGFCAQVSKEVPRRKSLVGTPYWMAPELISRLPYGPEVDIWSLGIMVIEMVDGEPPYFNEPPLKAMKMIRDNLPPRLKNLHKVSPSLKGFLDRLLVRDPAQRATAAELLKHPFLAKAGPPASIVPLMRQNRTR
UniProt Q9C098: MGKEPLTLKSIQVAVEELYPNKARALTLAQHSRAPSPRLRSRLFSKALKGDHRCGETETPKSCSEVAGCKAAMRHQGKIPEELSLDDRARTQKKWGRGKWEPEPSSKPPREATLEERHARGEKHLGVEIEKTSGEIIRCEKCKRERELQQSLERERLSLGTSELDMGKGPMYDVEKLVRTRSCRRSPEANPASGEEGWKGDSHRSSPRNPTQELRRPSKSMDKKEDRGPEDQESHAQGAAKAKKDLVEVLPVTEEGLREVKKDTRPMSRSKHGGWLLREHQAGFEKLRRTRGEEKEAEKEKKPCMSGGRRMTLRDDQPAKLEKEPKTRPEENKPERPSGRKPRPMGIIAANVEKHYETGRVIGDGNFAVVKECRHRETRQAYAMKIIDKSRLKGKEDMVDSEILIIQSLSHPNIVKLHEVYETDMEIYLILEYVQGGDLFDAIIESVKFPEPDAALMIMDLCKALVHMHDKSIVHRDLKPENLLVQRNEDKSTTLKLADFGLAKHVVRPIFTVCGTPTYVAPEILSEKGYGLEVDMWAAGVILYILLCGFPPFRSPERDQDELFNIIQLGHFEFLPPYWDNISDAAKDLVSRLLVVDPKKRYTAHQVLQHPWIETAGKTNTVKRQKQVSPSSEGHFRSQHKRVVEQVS
UniProt P22607, 23-806 G697C: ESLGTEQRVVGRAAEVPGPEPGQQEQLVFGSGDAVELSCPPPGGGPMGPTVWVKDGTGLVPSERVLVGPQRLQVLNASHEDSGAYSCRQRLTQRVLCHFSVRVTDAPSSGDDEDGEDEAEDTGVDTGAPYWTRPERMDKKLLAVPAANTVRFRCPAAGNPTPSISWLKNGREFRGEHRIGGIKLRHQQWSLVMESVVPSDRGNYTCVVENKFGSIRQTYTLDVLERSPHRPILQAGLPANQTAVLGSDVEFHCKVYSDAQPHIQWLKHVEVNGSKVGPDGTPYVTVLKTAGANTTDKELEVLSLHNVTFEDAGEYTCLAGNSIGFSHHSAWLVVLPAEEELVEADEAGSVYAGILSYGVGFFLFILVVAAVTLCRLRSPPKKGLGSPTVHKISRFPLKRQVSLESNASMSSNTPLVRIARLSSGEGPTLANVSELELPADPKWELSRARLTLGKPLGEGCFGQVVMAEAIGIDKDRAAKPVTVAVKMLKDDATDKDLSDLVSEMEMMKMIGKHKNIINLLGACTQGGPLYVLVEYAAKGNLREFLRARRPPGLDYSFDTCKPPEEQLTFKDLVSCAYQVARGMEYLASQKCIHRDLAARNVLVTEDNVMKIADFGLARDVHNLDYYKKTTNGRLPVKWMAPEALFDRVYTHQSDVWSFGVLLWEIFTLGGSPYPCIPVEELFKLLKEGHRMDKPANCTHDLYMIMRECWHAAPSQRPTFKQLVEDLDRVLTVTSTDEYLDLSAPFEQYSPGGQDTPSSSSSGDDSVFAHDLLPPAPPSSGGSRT
UniProt P53779: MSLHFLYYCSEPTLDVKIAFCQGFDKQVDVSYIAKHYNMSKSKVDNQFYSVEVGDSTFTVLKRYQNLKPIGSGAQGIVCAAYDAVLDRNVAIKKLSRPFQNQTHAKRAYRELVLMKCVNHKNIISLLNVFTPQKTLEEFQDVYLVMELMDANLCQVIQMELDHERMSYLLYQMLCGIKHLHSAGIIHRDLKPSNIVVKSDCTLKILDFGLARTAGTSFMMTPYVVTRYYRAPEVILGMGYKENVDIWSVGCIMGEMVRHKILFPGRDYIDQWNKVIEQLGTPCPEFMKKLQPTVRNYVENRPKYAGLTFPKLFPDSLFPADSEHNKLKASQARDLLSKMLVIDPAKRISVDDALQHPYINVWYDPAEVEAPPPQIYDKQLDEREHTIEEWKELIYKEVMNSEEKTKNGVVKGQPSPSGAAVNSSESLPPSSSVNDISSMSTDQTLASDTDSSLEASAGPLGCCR
UniProt P78356: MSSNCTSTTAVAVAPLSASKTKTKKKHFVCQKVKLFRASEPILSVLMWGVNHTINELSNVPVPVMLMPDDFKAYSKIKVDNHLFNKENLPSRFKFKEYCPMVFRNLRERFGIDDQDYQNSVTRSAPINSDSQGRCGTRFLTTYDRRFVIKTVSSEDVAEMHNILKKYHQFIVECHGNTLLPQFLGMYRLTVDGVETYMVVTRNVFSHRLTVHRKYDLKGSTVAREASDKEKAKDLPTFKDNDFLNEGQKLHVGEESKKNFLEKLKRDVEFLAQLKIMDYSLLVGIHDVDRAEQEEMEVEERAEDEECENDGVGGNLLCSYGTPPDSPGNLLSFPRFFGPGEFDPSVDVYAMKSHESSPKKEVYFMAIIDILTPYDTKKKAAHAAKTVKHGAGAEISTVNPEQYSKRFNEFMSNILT
UniProt Q15208: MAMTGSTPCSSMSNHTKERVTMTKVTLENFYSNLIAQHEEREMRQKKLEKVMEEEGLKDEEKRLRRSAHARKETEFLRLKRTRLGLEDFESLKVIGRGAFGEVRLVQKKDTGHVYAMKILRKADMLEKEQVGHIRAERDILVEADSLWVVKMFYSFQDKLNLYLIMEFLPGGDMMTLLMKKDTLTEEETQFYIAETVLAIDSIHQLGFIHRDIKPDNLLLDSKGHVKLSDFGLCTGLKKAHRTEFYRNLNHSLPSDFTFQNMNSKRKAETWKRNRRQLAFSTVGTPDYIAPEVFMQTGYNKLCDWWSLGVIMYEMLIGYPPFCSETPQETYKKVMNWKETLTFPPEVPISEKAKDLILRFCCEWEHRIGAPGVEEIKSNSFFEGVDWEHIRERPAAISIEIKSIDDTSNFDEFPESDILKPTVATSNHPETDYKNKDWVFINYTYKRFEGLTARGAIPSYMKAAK
UniProt Q56UN5: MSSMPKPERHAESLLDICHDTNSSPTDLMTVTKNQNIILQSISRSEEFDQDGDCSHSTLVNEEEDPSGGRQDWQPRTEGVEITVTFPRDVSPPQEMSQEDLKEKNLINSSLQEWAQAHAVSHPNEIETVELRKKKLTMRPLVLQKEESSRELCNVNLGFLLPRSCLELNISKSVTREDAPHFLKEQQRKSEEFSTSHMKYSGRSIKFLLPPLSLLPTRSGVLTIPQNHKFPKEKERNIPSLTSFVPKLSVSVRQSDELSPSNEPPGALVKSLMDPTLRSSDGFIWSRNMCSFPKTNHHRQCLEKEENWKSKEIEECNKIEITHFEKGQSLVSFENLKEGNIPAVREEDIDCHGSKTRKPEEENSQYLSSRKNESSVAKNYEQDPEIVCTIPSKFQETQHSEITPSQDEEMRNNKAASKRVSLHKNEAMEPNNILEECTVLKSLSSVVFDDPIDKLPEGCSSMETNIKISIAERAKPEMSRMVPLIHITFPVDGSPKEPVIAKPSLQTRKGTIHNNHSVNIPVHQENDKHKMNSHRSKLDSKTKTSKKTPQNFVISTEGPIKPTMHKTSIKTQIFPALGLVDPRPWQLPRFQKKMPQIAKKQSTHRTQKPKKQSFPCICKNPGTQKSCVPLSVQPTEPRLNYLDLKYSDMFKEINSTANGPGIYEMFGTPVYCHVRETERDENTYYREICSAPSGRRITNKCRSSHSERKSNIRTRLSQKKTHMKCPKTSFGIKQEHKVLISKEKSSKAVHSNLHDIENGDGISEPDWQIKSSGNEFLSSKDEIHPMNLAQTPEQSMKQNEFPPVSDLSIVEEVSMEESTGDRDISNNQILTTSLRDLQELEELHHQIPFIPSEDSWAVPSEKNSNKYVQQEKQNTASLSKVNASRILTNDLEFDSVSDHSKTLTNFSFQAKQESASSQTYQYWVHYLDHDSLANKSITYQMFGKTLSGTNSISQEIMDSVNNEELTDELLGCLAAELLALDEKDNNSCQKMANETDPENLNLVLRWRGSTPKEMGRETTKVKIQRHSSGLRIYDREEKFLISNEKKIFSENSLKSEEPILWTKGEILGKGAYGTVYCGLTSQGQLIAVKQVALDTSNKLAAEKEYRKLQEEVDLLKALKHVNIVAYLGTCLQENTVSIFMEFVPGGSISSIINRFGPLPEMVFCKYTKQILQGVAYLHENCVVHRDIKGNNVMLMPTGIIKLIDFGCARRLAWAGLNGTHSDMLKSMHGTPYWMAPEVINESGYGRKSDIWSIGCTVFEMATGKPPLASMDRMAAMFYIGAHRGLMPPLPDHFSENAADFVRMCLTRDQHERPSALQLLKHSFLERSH
UniProt P29320, 21-983: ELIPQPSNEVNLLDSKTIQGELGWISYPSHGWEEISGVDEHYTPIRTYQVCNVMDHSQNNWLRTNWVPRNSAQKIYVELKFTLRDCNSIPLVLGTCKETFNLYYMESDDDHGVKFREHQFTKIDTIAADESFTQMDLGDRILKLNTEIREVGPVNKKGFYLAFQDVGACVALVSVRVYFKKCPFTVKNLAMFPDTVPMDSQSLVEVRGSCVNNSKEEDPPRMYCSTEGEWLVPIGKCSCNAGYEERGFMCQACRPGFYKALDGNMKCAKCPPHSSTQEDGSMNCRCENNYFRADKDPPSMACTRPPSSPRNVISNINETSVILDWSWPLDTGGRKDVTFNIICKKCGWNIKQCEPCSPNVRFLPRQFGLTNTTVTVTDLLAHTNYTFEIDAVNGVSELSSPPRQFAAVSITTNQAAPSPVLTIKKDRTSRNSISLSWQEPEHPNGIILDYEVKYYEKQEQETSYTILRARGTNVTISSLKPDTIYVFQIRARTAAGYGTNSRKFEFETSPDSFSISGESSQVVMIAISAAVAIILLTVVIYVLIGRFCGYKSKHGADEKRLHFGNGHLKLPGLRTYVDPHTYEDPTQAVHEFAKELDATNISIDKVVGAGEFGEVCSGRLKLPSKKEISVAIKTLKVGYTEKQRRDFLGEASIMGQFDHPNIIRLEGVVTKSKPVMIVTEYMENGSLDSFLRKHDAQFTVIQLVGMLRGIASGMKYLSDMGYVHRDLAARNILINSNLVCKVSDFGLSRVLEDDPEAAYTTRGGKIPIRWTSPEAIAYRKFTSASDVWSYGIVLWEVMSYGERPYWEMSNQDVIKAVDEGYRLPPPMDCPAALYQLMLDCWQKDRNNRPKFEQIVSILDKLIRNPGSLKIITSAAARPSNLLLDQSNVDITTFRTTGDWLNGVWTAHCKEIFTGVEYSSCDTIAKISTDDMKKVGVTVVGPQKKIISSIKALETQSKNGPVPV

Key:
Assay in all cases: biochemical
Details in all cases: read-out: Percent Control
IKK-alpha = IKK-alpha (Homo sapiens, UniProt O15111)
[1] = target: RPS6KA5(Kin.Dom.2-C-terminal) (Homo sapiens, UniProt O75582)
FER = FER (Homo sapiens, UniProt P16591)
CSNK1A1 = CSNK1A1 (Homo sapiens, UniProt P48729)
GRK2 = GRK2 (Homo sapiens, UniProt P25098)
VEGFR2 = VEGFR2 (Homo sapiens, UniProt P35968)
MYO3B = MYO3B (Homo sapiens, UniProt Q8WXR4)
PAK4 = PAK4 (Homo sapiens, UniProt O96013)
ULK3 = ULK3 (Homo sapiens, UniProt Q6PHR2)
MST2 = MST2 (Homo sapiens, UniProt Q13188)
FGFR2 = FGFR2 (Homo sapiens, UniProt P21802)
DCAMKL3 = DCAMKL3 (Homo sapiens, UniProt Q9C098)
FGR = FGR (Homo sapiens, UniProt P09769)
FGFR3(G697C) = FGFR3(G697C) (Homo sapiens, UniProt P22607, G697C)
ERK1 = ERK1 (Homo sapiens, UniProt P27361)
BLK = BLK (Homo sapiens, UniProt P51451)
[2] = target: RSK1(Kin.Dom.1-N-terminal) (Homo sapiens, UniProt Q15418)
TYRO3 = TYRO3 (Homo sapiens, UniProt Q06418)
TIE2 = TIE2 (Homo sapiens, UniProt Q02763)
IKK-epsilon = IKK-epsilon (Homo sapiens, UniProt Q14164)
MKNK2 = MKNK2 (Homo sapiens, UniProt Q9HBH9)
ULK2 = ULK2 (Homo sapiens, UniProt Q8IYT8)
SYK = SYK (Homo sapiens, UniProt P43405)
MAP3K3 = MAP3K3 (Homo sapiens, UniProt Q99759)
MINK = MINK (Homo sapiens, UniProt Q8N4C8)
[3] = target: TYK2(JH2domain-pseudokinase) (Homo sapiens, UniProt P29597)
p38-beta = p38-beta (Homo sapiens, UniProt Q15759)
JNK3 = JNK3 (Homo sapiens, UniProt P53779)
BTK = BTK (Homo sapiens, UniProt Q06187)
PCTK2 = PCTK2 (Homo sapiens, UniProt Q00537)
PIP5K2B = PIP5K2B (Homo sapiens, UniProt P78356)
CDK11 = CDK11 (Homo sapiens, UniProt Q9BWU1)
RET(M918T) = RET(M918T) (Homo sapiens, UniProt P07949, M918T)
EPHB1 = EPHB1 (Homo sapiens, UniProt P54762)
NDR1 = NDR1 (Homo sapiens, UniProt Q15208)
GSK3A = GSK3A (Homo sapiens, UniProt P49840)
LIMK2 = LIMK2 (Homo sapiens, UniProt P53671)
PIK3C2G = PIK3C2G (Homo sapiens, UniProt O75747)
PFTK1 = PFTK1 (Homo sapiens, UniProt O94921)
YSK4 = YSK4 (Homo sapiens, UniProt Q56UN5)
MELK = MELK (Homo sapiens, UniProt Q14680)
EPHA3 = EPHA3 (Homo sapiens, UniProt P29320)
EGFR(L858R,T790M) = EGFR(L858R,T790M) (Homo sapiens, UniProt P00533, L858R/T790M)

Q: For COc1cc2c(Nc3ccc(Cl)c(OC)n3)c(C#N)cnc2cc1OCCON1CCN(C)CC1 [16a, 4-((5-Chloro-6-methoxypyridin-2-yl)amino)-6-methoxy-7-(2-((4-methylpiperazin-1-yl)oxy)ethoxy)quinoline-3-carbonitrile], which remaining activity at 1 µM (IKK-alpha) is on record?
A: 100%

Q: And the remaining activity at 1 µM [1]?
A: 84%

Q: And the remaining activity at 1 µM (FER)?
A: 13%

Q: And the remaining activity at 1 µM (CSNK1A1)?
A: 2%

Q: What about the remaining activity at 1 µM (GRK2) of the same compound?
A: 97%

Q: What about the remaining activity at 1 µM (VEGFR2) of the same compound?
A: 84%

Q: What about the remaining activity at 1 µM (MYO3B) of the same compound?
A: 32%

Q: And the remaining activity at 1 µM (PAK4)?
A: 47%

Q: What about the remaining activity at 1 µM (ULK3) of the same compound?
A: 0.55%

Q: What about the remaining activity at 1 µM (MST2) of the same compound?
A: 29%

Q: What about the remaining activity at 1 µM (FGFR2) of the same compound?
A: 81%

Q: And the remaining activity at 1 µM (DCAMKL3)?
A: 9.1%

Q: And the remaining activity at 1 µM (FGR)?
A: 5.4%

Q: What about the remaining activity at 1 µM (FGFR3(G697C)) of the same compound?
A: 91%

Q: And the remaining activity at 1 µM (ERK1)?
A: 100%

Q: And the remaining activity at 1 µM (BLK)?
A: 0.2%

Q: And the remaining activity at 1 µM [2]?
A: 37%

Q: What about the remaining activity at 1 µM (TYRO3) of the same compound?
A: 7%

Q: What about the remaining activity at 1 µM (TIE2) of the same compound?
A: 70%

Q: And the remaining activity at 1 µM (IKK-epsilon)?
A: 38%

Q: What about the remaining activity at 1 µM (MKNK2) of the same compound?
A: 100%

Q: What about the remaining activity at 1 µM (ULK2) of the same compound?
A: 14%

Q: What about the remaining activity at 1 µM (SYK) of the same compound?
A: 3.6%

Q: And the remaining activity at 1 µM (MAP3K3)?
A: 0.1%

Q: And the remaining activity at 1 µM (MINK)?
A: 3.8%

Q: What about the remaining activity at 1 µM [3] of the same compound?
A: 84%

Q: What about the remaining activity at 1 µM (p38-beta) of the same compound?
A: 97%

Q: And the remaining activity at 1 µM (JNK3)?
A: 100%

Q: What about the remaining activity at 1 µM (BTK) of the same compound?
A: 0.4%

Q: And the remaining activity at 1 µM (PCTK2)?
A: 100%

Q: And the remaining activity at 1 µM (PIP5K2B)?
A: 10%

Q: What about the remaining activity at 1 µM (CDK11) of the same compound?
A: 99%

Q: And the remaining activity at 1 µM (RET(M918T))?
A: 44%

Q: And the remaining activity at 1 µM (EPHB1)?
A: 13%

Q: What about the remaining activity at 1 µM (NDR1) of the same compound?
A: 80%

Q: What about the remaining activity at 1 µM (GSK3A) of the same compound?
A: 100%

Q: And the remaining activity at 1 µM (LIMK2)?
A: 100%

Q: What about the remaining activity at 1 µM (PIK3C2G) of the same compound?
A: 76%

Q: And the remaining activity at 1 µM (PFTK1)?
A: 95%

Q: What about the remaining activity at 1 µM (YSK4) of the same compound?
A: 0.35%

Q: And the remaining activity at 1 µM (MELK)?
A: 65%

Q: What about the remaining activity at 1 µM (EPHA3) of the same compound?
A: 7.3%

Q: What about the remaining activity at 1 µM (EGFR(L858R,T790M)) of the same compound?
A: 29%
